{
  "source": "patent US20160220689A1",
  "about": "“MACROMOLECULES OF DENDRIMER-PLATINUM CONJUGATES” (priority 2013, published 2016)",
  "origin": "cited, not measured here",
  "conditions": "patients receiving the drug; cited from earlier work",
  "data": [
    {"substance": "oxaliplatin [reference compound]", "values": [
      {"measurement": "patients developing peripheral neurotoxicity", "result": "85-95%"}
    ]}
  ]
}
